Source: patent US10562947B2, “Compositions and methods for preventing or treating diseases, conditions or processes characterized by aberrant fibroblast proliferation and extracellular matrix deposition” (MOERAE MATRIX, INC., priority 2011, dated 2020)

Amino acid sequences for entries named in this document (tags omitted). A change or cut given only in a name is not applied to a line headed by its entry. Residues count along the entry.
UniProt P06213, 1005-1310 limits assumed: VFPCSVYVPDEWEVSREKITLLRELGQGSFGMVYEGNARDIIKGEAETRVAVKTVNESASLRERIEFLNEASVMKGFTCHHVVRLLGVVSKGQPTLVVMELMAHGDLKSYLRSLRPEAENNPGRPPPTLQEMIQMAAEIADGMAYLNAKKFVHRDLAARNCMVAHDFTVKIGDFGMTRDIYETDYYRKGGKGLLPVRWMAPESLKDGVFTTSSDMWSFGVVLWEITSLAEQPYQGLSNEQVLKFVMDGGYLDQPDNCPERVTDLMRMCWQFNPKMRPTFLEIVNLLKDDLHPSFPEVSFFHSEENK
UniProt O96017, whole entry: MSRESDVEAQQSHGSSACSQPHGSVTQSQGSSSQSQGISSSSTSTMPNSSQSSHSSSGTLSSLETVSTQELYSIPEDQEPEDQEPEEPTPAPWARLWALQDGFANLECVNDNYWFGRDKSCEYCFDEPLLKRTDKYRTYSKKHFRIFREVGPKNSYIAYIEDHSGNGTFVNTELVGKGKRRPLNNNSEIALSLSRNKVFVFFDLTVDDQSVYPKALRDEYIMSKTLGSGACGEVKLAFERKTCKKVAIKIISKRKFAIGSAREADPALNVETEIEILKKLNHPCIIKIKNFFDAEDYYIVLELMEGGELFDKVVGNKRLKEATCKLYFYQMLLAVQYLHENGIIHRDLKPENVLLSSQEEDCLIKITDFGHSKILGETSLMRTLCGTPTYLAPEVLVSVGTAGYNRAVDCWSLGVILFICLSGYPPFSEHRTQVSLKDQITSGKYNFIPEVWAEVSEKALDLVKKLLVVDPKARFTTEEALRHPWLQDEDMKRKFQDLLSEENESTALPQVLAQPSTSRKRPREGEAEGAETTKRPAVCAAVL
UniProt Q9NYY3: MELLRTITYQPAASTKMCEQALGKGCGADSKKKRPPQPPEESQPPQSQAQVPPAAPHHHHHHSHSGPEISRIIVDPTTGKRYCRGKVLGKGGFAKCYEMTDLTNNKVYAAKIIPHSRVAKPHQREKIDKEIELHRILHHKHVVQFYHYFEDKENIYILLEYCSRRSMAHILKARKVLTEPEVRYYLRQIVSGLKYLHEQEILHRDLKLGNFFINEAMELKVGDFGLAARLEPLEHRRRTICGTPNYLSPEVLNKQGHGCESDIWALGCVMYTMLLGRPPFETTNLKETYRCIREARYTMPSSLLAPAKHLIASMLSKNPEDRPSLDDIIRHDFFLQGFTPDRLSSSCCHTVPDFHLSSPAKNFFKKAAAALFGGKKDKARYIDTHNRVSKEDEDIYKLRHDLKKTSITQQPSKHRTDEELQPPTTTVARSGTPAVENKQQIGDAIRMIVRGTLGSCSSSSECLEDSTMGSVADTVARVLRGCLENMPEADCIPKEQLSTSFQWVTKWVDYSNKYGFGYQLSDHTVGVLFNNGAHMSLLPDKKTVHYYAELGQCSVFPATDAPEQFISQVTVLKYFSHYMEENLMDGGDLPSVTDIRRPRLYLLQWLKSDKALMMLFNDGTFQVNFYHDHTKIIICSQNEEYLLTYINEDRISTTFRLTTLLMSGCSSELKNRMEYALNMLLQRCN
UniProt Q5VT25: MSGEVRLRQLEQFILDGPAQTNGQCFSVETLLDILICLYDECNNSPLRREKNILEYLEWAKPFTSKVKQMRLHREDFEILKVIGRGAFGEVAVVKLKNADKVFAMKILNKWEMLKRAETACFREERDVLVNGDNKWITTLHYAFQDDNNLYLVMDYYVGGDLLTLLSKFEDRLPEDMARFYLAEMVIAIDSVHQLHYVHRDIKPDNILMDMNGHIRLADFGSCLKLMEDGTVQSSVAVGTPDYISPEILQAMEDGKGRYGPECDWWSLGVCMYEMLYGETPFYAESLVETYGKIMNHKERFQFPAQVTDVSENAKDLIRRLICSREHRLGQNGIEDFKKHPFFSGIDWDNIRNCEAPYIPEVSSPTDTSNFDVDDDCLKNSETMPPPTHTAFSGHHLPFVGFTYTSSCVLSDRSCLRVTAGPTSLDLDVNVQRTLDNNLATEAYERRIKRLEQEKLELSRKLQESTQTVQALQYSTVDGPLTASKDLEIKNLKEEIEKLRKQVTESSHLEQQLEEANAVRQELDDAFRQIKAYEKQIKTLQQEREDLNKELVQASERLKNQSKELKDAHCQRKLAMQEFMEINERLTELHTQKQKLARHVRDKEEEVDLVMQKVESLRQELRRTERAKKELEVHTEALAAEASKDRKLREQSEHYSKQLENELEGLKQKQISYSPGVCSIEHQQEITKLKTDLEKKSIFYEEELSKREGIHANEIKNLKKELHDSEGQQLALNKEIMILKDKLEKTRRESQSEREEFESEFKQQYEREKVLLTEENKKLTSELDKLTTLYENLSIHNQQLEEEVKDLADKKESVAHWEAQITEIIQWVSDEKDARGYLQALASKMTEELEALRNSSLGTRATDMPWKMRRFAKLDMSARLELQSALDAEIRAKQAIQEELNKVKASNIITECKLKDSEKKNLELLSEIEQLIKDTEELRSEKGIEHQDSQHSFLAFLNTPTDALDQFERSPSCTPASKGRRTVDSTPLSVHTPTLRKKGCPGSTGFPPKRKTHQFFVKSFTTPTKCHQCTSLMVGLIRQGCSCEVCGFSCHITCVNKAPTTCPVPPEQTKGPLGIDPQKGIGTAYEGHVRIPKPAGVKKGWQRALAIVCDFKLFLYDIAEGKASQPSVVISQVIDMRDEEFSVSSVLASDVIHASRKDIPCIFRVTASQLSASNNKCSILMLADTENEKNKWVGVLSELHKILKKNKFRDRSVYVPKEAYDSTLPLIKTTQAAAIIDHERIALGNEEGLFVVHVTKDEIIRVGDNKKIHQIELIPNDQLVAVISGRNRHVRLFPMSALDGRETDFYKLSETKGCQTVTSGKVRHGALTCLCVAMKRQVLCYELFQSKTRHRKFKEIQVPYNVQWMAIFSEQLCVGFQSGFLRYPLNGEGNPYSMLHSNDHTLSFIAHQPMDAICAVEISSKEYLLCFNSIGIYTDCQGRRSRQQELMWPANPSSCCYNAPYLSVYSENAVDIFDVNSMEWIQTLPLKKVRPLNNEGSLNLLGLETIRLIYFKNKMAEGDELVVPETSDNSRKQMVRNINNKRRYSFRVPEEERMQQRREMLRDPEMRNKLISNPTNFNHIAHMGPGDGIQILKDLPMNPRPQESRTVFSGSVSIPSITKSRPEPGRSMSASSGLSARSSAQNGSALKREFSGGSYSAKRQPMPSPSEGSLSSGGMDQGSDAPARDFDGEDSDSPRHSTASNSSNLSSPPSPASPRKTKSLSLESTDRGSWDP
UniProt Q86Z02: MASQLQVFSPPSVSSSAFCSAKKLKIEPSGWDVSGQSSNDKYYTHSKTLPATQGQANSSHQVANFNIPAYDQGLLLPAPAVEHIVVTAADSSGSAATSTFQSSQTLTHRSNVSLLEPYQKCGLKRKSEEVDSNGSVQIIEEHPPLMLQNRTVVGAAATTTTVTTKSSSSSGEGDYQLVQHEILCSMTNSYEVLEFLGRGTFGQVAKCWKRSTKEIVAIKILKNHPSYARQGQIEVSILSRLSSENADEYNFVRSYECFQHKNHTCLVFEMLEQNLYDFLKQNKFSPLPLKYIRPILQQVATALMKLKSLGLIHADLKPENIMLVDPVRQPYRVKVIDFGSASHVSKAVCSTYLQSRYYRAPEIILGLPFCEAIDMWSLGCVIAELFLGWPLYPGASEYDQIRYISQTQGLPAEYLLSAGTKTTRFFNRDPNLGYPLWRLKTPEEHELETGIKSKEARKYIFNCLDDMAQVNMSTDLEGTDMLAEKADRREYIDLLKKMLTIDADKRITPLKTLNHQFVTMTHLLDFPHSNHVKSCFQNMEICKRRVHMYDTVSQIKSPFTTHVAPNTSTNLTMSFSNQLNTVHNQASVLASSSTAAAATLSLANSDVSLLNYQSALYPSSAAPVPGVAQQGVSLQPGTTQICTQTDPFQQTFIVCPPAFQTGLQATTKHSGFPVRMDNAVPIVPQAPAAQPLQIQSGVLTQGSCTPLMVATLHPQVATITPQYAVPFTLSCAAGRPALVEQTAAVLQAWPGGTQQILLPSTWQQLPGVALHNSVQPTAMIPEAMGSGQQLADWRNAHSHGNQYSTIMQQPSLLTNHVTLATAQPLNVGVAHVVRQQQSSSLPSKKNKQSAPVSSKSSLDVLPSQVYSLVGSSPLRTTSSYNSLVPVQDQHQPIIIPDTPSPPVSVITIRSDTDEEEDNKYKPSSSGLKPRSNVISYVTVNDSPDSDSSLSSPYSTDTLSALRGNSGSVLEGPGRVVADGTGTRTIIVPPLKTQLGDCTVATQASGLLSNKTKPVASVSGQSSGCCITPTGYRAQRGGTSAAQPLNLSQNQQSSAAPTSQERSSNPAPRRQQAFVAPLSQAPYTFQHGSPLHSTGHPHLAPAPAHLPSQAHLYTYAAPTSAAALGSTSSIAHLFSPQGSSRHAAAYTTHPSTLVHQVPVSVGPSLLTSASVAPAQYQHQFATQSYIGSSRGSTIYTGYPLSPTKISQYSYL
UniProt O14920: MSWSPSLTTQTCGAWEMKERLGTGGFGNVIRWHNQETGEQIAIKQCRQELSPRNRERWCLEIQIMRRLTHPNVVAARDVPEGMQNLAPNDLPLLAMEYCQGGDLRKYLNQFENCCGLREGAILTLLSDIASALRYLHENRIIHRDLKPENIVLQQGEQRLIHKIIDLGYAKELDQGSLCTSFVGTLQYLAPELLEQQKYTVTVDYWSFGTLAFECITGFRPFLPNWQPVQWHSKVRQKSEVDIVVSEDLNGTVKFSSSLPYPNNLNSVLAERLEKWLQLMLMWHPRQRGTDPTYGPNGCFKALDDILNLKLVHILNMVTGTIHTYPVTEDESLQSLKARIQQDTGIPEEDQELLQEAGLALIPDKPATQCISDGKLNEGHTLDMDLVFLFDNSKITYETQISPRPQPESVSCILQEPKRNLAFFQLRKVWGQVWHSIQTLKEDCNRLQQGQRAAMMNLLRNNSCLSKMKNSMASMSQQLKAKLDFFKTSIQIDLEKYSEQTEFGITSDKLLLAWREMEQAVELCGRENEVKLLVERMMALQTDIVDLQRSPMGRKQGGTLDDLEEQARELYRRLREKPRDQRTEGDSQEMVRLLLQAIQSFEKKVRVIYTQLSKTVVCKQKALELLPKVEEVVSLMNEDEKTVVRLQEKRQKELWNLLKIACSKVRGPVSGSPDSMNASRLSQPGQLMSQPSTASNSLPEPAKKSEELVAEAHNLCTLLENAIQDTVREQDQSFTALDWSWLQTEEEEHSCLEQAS
UniProt Q16539, whole entry: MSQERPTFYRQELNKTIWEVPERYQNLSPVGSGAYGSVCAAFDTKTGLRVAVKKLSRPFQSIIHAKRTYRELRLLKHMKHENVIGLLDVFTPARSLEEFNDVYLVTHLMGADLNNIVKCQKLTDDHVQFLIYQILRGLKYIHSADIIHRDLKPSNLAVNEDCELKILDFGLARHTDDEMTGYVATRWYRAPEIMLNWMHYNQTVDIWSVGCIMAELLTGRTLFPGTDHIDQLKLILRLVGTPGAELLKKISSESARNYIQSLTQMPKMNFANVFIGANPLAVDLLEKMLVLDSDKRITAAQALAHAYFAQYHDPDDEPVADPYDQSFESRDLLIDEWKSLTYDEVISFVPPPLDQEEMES
UniProt Q9H1R3, 2-596 limits assumed: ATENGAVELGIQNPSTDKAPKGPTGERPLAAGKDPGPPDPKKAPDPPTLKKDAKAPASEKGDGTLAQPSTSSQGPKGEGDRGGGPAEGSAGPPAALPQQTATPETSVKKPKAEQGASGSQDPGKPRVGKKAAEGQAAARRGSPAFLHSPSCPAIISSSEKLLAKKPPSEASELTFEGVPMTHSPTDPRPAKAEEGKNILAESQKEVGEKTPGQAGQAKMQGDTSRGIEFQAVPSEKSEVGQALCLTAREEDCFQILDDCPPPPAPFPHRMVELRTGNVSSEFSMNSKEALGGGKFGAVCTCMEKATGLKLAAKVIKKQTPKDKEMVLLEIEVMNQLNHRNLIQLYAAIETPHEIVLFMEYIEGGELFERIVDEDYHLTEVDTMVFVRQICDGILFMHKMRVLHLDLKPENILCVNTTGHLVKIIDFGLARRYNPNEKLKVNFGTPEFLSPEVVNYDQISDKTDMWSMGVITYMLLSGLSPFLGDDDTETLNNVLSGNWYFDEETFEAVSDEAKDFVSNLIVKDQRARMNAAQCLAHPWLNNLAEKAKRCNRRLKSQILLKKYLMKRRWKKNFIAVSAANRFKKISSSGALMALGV

Columns and labels:
Test in all cases: Kinase Profiling Assay
Assay type in all cases: biochemical
Details in all cases: 100 μM peptide
IR(h), activated = target: T1, IR(h), activated (Homo sapiens, UniProt P06213)
T1 construct: purchased Millipore
Experimental: (§1) Every kinase activity measurement was conducted in duplicate.
(§2) In addition to determining the IC50 of the compound, the specificity of MK2 inhibitory peptides was assessed by examining activities of all 266 human kinases available for testing in the Millipore kinase profiling service (Table 1).

SGK2(h) = target: T2, SGK2(h) (Homo sapiens, UniProt Q9HBY8)
T2 sequence (Q9HBY8 1-367): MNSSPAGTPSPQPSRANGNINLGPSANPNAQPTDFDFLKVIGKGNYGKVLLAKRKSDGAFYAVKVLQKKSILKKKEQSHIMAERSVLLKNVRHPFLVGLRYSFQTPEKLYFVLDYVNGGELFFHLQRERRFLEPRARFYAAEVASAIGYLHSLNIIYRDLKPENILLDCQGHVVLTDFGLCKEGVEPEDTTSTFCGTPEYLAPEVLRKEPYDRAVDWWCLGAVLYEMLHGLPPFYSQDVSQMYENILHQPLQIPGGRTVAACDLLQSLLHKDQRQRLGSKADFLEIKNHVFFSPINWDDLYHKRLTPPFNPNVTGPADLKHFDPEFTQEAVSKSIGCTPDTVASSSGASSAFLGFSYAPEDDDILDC
Experimental: as §1, §2

CHK2(h) = CHK2(h) (Homo sapiens, UniProt O96017)
Experimental: as §1, §2

Snk(h) = Snk(h) (Homo sapiens, UniProt Q9NYY3)
Experimental: as §1, §2

MRCKα(h) = MRCKα(h) (Homo sapiens, UniProt Q5VT25)
Experimental: as §1, §2

HIPK1(h) = target: T3, HIPK1(h) (Homo sapiens, UniProt Q86Z02)
T3 construct: purchased Millipore
Experimental: as §1, §2

FGFR2(N549H)(h) = FGFR2(N549H)(h) (Homo sapiens, UniProt P21802, N549H)
Experimental: as §1, §2

SGK(h) = target: T4, SGK(h) (Homo sapiens, UniProt O00141)
T4 sequence (O00141 1-431): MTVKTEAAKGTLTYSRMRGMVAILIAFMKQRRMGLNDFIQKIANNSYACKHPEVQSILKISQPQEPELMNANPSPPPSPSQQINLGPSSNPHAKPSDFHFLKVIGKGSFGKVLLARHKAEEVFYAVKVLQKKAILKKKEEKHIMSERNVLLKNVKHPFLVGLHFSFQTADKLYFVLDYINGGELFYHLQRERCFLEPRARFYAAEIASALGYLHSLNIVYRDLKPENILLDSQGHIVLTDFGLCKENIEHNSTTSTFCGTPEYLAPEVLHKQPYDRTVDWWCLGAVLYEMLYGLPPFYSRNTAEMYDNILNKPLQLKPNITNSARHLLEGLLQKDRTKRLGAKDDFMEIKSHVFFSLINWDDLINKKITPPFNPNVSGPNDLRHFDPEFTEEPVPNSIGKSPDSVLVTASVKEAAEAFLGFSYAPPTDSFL
Experimental: as §1, §2

IKKβ(h) = target: T5, IKKβ(h) (Homo sapiens, UniProt O14920)
T5 construct: purchased Millipore
Experimental: as §1, §2

SAPK2a(h) = SAPK2a(h) (Homo sapiens, UniProt Q16539)
Experimental: as §1, §2

EGFR(T790M)(h) = EGFR(T790M)(h) (Homo sapiens, UniProt P00533, T790M)
Experimental: as §1, §2

Flt3(D835Y)(h) = Flt3(D835Y)(h) (Homo sapiens, UniProt P36888, D835Y)
Experimental: as §1, §2

DAPK1(h) = DAPK1(h) (Homo sapiens, UniProt P53355)
Experimental: as §1, §2

Ret(V804M)(h) = target: T6, Ret(V804M)(h) (Homo sapiens, UniProt P07949, V804M)
T6 construct: purchased Millipore (IC50 Profiler Express service)
Experimental: as §1, §2

Abl(M351T)(h) = Abl(M351T)(h) (Homo sapiens, UniProt P00519, M351T)
Experimental: as §1, §2

PrKX(h) = target: T7, PrKX(h) (Homo sapiens, UniProt P51817)
T7 construct: purchased Millipore (IC50 Profiler Express service)
T7 sequence (P51817 1-358): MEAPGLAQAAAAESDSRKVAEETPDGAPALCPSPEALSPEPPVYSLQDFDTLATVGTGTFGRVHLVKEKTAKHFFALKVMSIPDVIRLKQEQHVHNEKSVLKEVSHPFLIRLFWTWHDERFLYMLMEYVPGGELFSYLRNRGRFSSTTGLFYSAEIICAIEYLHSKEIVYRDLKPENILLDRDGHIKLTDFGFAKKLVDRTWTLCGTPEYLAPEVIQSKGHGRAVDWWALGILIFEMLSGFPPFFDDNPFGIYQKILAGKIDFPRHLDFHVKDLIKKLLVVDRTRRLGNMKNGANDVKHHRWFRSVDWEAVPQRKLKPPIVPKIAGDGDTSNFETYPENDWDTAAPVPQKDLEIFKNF
Experimental: as §1, §2

CHK1(h) = target: T8, CHK1(h) (Homo sapiens, UniProt O14757)
T8 sequence (O14757 1-476): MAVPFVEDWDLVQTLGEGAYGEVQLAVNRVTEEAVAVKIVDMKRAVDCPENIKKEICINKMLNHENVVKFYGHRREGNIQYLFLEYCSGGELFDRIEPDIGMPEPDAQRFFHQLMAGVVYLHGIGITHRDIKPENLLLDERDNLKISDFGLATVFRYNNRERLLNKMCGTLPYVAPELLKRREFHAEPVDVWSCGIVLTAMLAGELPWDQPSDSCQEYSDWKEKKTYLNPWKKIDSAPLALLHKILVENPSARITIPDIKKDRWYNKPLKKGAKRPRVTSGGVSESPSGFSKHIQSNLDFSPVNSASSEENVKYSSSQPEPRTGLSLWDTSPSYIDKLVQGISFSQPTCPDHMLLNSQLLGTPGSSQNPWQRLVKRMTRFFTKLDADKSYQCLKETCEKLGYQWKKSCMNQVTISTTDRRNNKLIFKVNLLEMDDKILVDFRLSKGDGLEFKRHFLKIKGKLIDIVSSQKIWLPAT
Experimental: as §1, §2

MLCK(h) = MLCK(h) (Homo sapiens, UniProt Q9H1R3)
Experimental: as §1, §2

## YARAAARQARAKALNRQLGVA (Mammalian) [MMI-0200]
IR(h), activated
  IR(h), activated % activity: 105%
SGK2(h)
  SGK2(h) % activity: 119%
CHK2(h)
  CHK2(h) % activity: 105%
Snk(h)
  Snk(h) % activity: 109%
MRCKα(h)
  MRCKα(h) % activity: 103%
HIPK1(h)
  HIPK1(h) % activity: 115%
FGFR2(N549H)(h)
  FGFR2(N549H)(h) % activity: 104%
SGK(h)
  SGK(h) % activity: 115%
IKKβ(h)
  IKKβ(h) % activity: 109%
SAPK2a(h)
  SAPK2a(h) % activity: 107%
EGFR(T790M)(h)
  EGFR(T790M)(h) % activity: 113%
Flt3(D835Y)(h)
  Flt3(D835Y)(h) % activity: 115%
DAPK1(h)
  DAPK1(h) % activity: 113%
Ret(V804M)(h)
  Ret(V804M)(h) % activity: 105%
Abl(M351T)(h)
  Abl(M351T)(h) % activity: 119%
PrKX(h)
  PrKX(h) % activity: 112%
CHK1(h)
  CHK1(h) % activity: 115%
MLCK(h)
  MLCK(h) % activity: 103%
